{"source": "patent US4900719A", "about": "“Nitrosothiols as hypotensive agents” (The Ohio State University, priority 1988, dated 1990)", "key": {"[1]": {"assay": "stability of other nitrosothiols (qualitative statement)", "assay_type": "physicochemical"}, "anesthetized dogs": {"tested_on": "anesthetized dogs", "assay": "arterial blood pressure after intravenous injection in anesthetized dogs (Examples 2 and 3)", "assay_type": "in vivo", "details": "intravenous injection in dextrose", "description": "Fifty milligrams of SNP (Nipride, Roche Laboratories) was reconstituted in 250 ml of 5% dextrose in water. A GSNO solution was diluted as 50 ug/ml in 5% dextrose in water. Seven mongrel dogs (18.1-31.8 kg) and seven cynomologus monkeys (Macaca fascicularis; 4.4-9.0 kg) were used in the study. The animals were given a pre-anesthetic (monkeys--Ketamine HCl, 10 mg/kg I.M.; dogs--0.2 mg/kg fentanyl and 1 mg/kg droperidol, Innovar Vet I.V.) and anesthetized with a mixture of α-chloralose (50 mg/kg) and urethane (500 mg/kg) given as an intravenous injection. The left femoral artery and vein were cannulated with heparinized saline-filled catheters. Arterial pressure was obtained from the arterial catheter using an electromedics MS-20 solid state pressure transducer and recorded on a Gould 2400 chart recorder. Randomized venous infusions of GSNO (n=7) and SNP (n=5) were made using Harvard apparatus compact infusion pump model 976. The infusion was maintained until a new steady state value for mean arterial pressure had been obtained for each infusion rate. […]\nBy following in general the procedure described for GSNO in Example 1, animal experiments are performed on a plurality of anesthetized dogs with each intravenous injection of S-Nitrosocaptopril in dextrose as well as the arterial blood pressure of the dogs being recorded. […]"}}}
{"substance": "S-nitroso derivative of human serum albumin: S-nitroso derivative of human serum albumin, made by transnitrosation from S-nitroso-3-mercaptopropionic acid", "values": [{"measurement": "stability (in words)", "setting": "[1]", "result": "quite stable"}, {"measurement": "lowering of arterial blood pressure (in words)", "setting": "anesthetized dogs", "result": "Significant lowering of arterial blood pressure"}]}
